Here are results for one compound from BindingDB's records for doi:10.1021/cb4002602 (National University of Singapore, 2013).

The target of the assay is Protein disulfide-isomerase (Bos taurus) (UniProt P05307). In words: The assay was carried out in 384-well plates according to literature procedures [46]. Each well contained 100mM sodium phosphate and 0.2mM EDTA pH 7.0. 10ng PDI was pre-incubated with various concentration of probes (4% DMSO) in 20uL buffer for 30 min at 37 degrees Celsius, followed by the addition of insulin (0.16mM final concentration) and DDT (1mM.

Compound `C#CCOC(=O)C1(C)c2[nH]c3ccccc3c2CCN1C(=O)CCl` (stereo unspecified) [16F16A] gave a half-inhibitory concentration (IC50) of 108 µM.
